Test: Bone and liver uptake scored from scintigraphic images of miniature pigs with melanotic lesions
Assay type: in vivo
Conditions: 24 hour images; average score of 3 investigators, scale 0-3
Description: Images (right lateral, left lateral and dorsal) were made at 4, 24, 48 and 72 hours.
1--Slight uptake (negligible)
2--Moderate uptake (intermediate )
3--Definite uptake (high)
The average of the 3 investigators independent scores were used in the following table.

Structure (SMILES) | Bone Uptake
CC(=O)Nc1cc(CN(CC(=O)O)CC(=O)O)c(O)c(CN(CC(=O)O)CC(=O)O)c1.[153Sm+3] [Example 1] | 2.67
CC(=O)Nc1cc(CN(CC(=O)O)CC(=O)O)c(O)c(CN(CC(=O)O)CC(=O)O)c1.[153Sm+3] [Example 3] | 2.67
CC(=O)Nc1cc(CN(CC(=O)O)CC(=O)O)c(O)c(CN(CC(=O)O)CC(=O)O)c1.[153Sm+3] [Example 4] | 2.67
